{"source": "patent EP4591861A1", "about": "“USE OF 4-TMAP FOR TREATING OR RELIEVING DEPRESSION” (IBIOME Biotechnology Co., Ltd., priority 2022, dated 2024)", "key": {"[1]": {"system": "AAD-induced depression model", "assay": "Forced swimming test in AAD-induced depression model", "format": "in vivo, mice", "description": "(§1) The forced swimming test apparatus is a transparent 20×30cm round barrel filled with pure water, with a diameter of 20cm and a water depth of 15cm. The pure water temperature is 23-25°C. A camera is installed in front of the apparatus and is flush with the water surface. After the mouse is placed in the water, a video of its activities in the water is collected for 6 minutes. The last 4 min of the video were analyzed to determine the immobility time of the mouse. Immobility behavior is defined as the behavior of the mouse floating, not struggling, or relying only on occasional swinging to maintain floating. The longer the immobility time, the more severe the depression.\n(§2) 11, 12, and 13. […] At the same time, it still has a significant antidepressant effect at concentrations of 0.3 mg/kg, 1 mg/kg, and 10 mg/kg."}, "[2]": {"system": "Cort-induced depression model", "conditions": "mouse, in vivo, iv, 0.1 mg/kg", "description": "as §1"}, "[3]": {"system": "CRS-induced depression model", "conditions": "mouse, in vivo, iv, 0.1 mg/kg", "description": "as §1"}, "[4]": {"system": "Cort-induced depression model", "conditions": "mouse, in vivo, iv, 0.1 mg/kg", "description": "(§3) The tail suspension test uses tape to suspend mice by their tails in a position where they cannot escape or grab onto nearby surfaces. A camera is mounted in front of the mice to record the activity of the mice for 6 minutes while they are suspended. The last 4 min of the video is then analyzed to determine the time the mice spend immobile. This test is based on the idea that animals that are subjected to short-term, unavoidable stress will develop an immobile posture, and the more severe the depressive phenotype, the less time they will spend trying to escape.", "remark": "listed apart in the source"}, "[5]": {"system": "CRS-induced depression model", "conditions": "mouse, in vivo, iv, 0.1 mg/kg", "description": "as §3", "remark": "listed apart in the source"}, "[6]": {"system": "AAD-induced depression model", "assay": "Tail suspension test in AAD-induced depression model", "design": "species or system mice", "conditions": "mouse, in vivo, iv", "description": "as §3, §2"}}, "note": "“Also recorded” adds a separate entry of the source. Where two headings read alike, the source gives them in different places.", "data": [{"smiles": "CC(CCC(=O)[O-])[N+](C)(C)C", "note": "(centres unmarked) [4-TMAP, 4-(trimethylammonio) pentanoate]", "values": [{"measurement": "minimal effective dose", "setting": "[1]; Mus musculus, iv, 2 h, read-out: minimum therapeutic dose", "value": 0.1, "unit": "mg/kg"}, {"measurement": "effective concentration compared with Brexpiprazole", "setting": "[1]; mouse, in vivo", "value": "lower effective concentration"}, {"measurement": "immobility time", "setting": "[1]; mouse, in vivo, iv, 0.1 mg/kg", "value": "significantly lower; also recorded: significantly reduce; also recorded: tends to reduce; also recorded: loses its effect"}, {"measurement": "immobility time", "setting": "[1]; mouse, in vivo, iv, 0.3 mg/kg", "value": "significantly reduce"}, {"measurement": "immobility time", "setting": "[1]; mouse, in vivo, iv, 1 mg/kg", "value": "significantly reduce"}, {"measurement": "immobility time", "setting": "[1]; mouse, in vivo, iv, 10 mg/kg", "value": "significantly reduce"}, {"measurement": "immobility time", "setting": "[2]", "value": "significantly lower"}, {"measurement": "immobility time", "setting": "[3]", "value": "significantly lower"}, {"measurement": "immobility time", "setting": "[4]", "value": "significantly lower"}, {"measurement": "immobility time", "setting": "[5]", "value": "significantly lower"}, {"measurement": "immobility time", "setting": "[6]; 0.1 mg/kg", "value": "significantly lower; also recorded: significantly reduce; also recorded: loses its effect; also recorded: tends to reduce"}, {"measurement": "immobility time", "setting": "[6]; 0.3 mg/kg", "value": "significantly reduce"}, {"measurement": "immobility time", "setting": "[6]; 1 mg/kg", "value": "significantly reduce"}, {"measurement": "immobility time", "setting": "[6]; 10 mg/kg", "value": "significantly reduce"}]}]}
